The values that follow come from ChEMBL document CHEMBL5335781, “Discovery of quinazolin-4-one-based non-covalent inhibitors targeting the severe acute respiratory syndrome coronavirus 2 main protease (SARS-CoV-2 Mpro)” (Eur J Med Chem, 2023).

The target in this assay is Replicase polyprotein 1ab (Severe acute respiratory syndrome coronavirus 2, UniProt P0DTD1).
Consider `CC(C)Cn1c(Cc2ccccc2)nc2cc(O)c(O)c(O)c2c1=O`, for which the IC50 (usually the midpoint of a concentration-inhibition curve) came to 466 nM.
With `O=c1[nH]c(-c2ccccc2F)nc2cc(O)c(O)c(O)c12` the figure was 1440 nM; with `O=c1[nH]c(C2CC2)nc2cc(O)c(O)c(O)c12`, 5490 nM; with `O=c1[nH]c(-c2ccccc2)nc2cc(O)c(O)c(O)c12`, 1370 nM.
Next, `O=c1c2c(O)c(O)c(O)cc2nc(-c2ccccc2)n1-c1cn[nH]c1`: 390 nM; `CC(C)Cc1nc2cc(O)c(O)c(O)c2c(=O)n1-c1ccc(Br)cc1F`: 284 nM.
Compound `O=c1c2c(O)c(O)c(O)cc2nc(-c2ccccc2)n1-c1ccccc1F` yielded an IC50 of 205 nM.
With `O=c1[nH]c(-c2cccc(F)c2F)nc2cc(O)c(O)c(O)c12` the figure was 1130 nM.
Next, `CC(C)Cc1nc2cc(O)c(O)c(O)c2c(=O)n1-c1ccccc1F`: 239 nM; `O=c1[nH]c(-c2ccccc2[N+](=O)[O-])nc2cc(O)c(O)c(O)c12`: 10600 nM.
With `CC(C)Cc1nc2cc(O)c(O)c(O)c2c(=O)[nH]1` the figure was 385 nM.
The compound `O=c1[nH]c(/C=C/c2ccccc2)nc2cc(O)c(O)c(O)c12` showed a half-maximal inhibitory concentration (IC50) of 2870 nM.
With `O=c1[nH]c(-c2ccccc2O)nc2cc(O)c(O)c(O)c12` the figure was 18300 nM.
Next, `Cc1cc(-n2c(CC(C)C)nc3cc(O)c(O)c(O)c3c2=O)ccc1F`: 100 nM; `O=c1c2c(O)c(O)c(O)cc2nc(-c2ccccc2)n1C1CCCC1`: 124 nM; `O=c1[nH]c(-c2ccc(F)c(F)c2)nc2cc(O)c(O)c(O)c12`: 2720 nM.
For the compound `CC(C)Cc1nc2cc(O)c(O)c(O)c2c(=O)n1-c1ccccc1`, the IC50 came to 107 nM.
`CC(C)(C)NC(=O)Cn1c(-c2ccccc2)nc2cc(O)c(O)c(O)c2c1=O` returned an IC50 of 949 nM.
In the case of `O=c1[nH]c(-c2ccccc2C(F)(F)F)nc2cc(O)c(O)c(O)c12`, the IC50 was 1480 nM.
The compound `CC(C)Cn1c(C(C)c2ccccc2)nc2cc(O)c(O)c(O)c2c1=O` (stereo unspecified) returned an IC50 of 692 nM.
Next, `O=c1[nH]c(-c2ccc(F)cc2)nc2cc(O)c(O)c(O)c12`: 12800 nM; `CC(c1ccccc1)c1nc2cc(O)c(O)c(O)c2c(=O)n1-c1ccccc1` (stereo unspecified): 477 nM; `CC(c1ccccc1)c1nc2cc(O)c(O)c(O)c2c(=O)n1-c1ccccc1F` (stereo unspecified): 290 nM.
`CCC(c1ccccc1)c1nc2cc(O)c(O)c(O)c2c(=O)[nH]1` (stereo unspecified) had a 50% inhibitory concentration (IC50) of 210 nM.
Next, `O=c1[nH]c(C2CCCCC2)nc2cc(O)c(O)c(O)c12`: 1370 nM; `O=c1[nH]c(C2CCCC2)nc2cc(O)c(O)c(O)c12`: 539 nM; `CC(c1ccccc1)c1nc2cc(O)c(O)c(O)c2c(=O)n1-c1ccc(Br)cc1F` (stereo unspecified): 386 nM.
Next, `Cc1ccc(-c2nc3cc(O)c(O)c(O)c3c(=O)[nH]2)cc1`: 1870 nM; `O=c1[nH]c(-c2ccccc2Br)nc2cc(O)c(O)c(O)c12`: 554 nM.
Next, `O=c1[nH]c(Cc2ccccc2)nc2cc(O)c(O)c(O)c12`: 327 nM; `O=c1[nH]c(-c2ccccc2OC(F)(F)F)nc2cc(O)c(O)c(O)c12`: 1800 nM.
In the case of `O=c1[nH]c(-c2cccc([N+](=O)[O-])c2)nc2cc(O)c(O)c(O)c12`, the half-maximal inhibitory concentration (IC50) came out at 11200 nM.
In the case of `O=c1c2c(O)c(O)c(O)cc2nc(-c2ccccc2)n1-c1ccc(O)cc1`, the half-maximal inhibitory concentration (IC50) turned out to be 271 nM.
Take `O=c1c2c(O)c(O)c(O)cc2nc(-c2ccccc2)n1CCO`: the IC50 was found to be 1360 nM.
Next, `O=c1[nH]c(-c2ccccc2Cl)nc2cc(O)c(O)c(O)c12`: 435 nM; `O=c1c2c(O)c(O)c(O)cc2nc(-c2ccccc2)n1-c1ccc(-c2ccccc2)cc1`: 1480 nM; `O=c1c2c(O)c(O)c(O)cc2nc(Cc2ccccc2)n1-c1ccccc1`: 131 nM.
With `O=c1[nH]c(-c2cccc(Cl)c2)nc2cc(O)c(O)c(O)c12` the figure was 6960 nM; with `O=c1c2c(O)c(O)c(O)cc2nc(-c2ccccc2)n1-c1cccnc1`, 212 nM.
For `CC(C)(C)c1cccc(-c2nc3cc(O)c(O)c(O)c3c(=O)[nH]2)c1`, half-maximal inhibition (IC50) required 8420 nM.
With `Cc1cc(-n2c(-c3ccccc3)nc3cc(O)c(O)c(O)c3c2=O)ccc1F` the figure was 117 nM; with `CC(C)c1cccc(-c2nc3cc(O)c(O)c(O)c3c(=O)[nH]2)c1`, 7640 nM.
Next, `O=c1c2c(O)c(O)c(O)cc2nc(-c2ccccc2)n1-c1ccc(Br)cc1F`: 207 nM; `O=c1c2c(O)c(O)c(O)cc2nc(-c2ccccc2)n1C1CCCCC1`: 274 nM; `O=c1c2c(O)c(O)c(O)cc2nc(-c2ccccc2)n1-c1ccccc1`: 83 nM.
Next, `CC(C)c1nc2cc(O)c(O)c(O)c2c(=O)[nH]1`: 4940 nM; `Cc1cc(-n2c(Cc3ccccc3)nc3cc(O)c(O)c(O)c3c2=O)ccc1F`: 502 nM.
For `O=c1[nH]c(-c2cccc(C(F)(F)F)c2)nc2cc(O)c(O)c(O)c12`, the midpoint of inhibition, the IC50, lay at 10500 nM.
With `O=c1c2c(O)c(O)c(O)cc2nc(-c2ccccc2)n1C1CC1` the figure was 290 nM; with `O=c1[nH]c(-c2ccc3ccccc3c2)nc2cc(O)c(O)c(O)c12`, 3570 nM; with `CC(C)C(c1ccccc1)c1nc2cc(O)c(O)c(O)c2c(=O)[nH]1` (stereo unspecified), 390 nM.
Compound `O=c1[nH]c(-c2ccc(Cl)cc2)nc2cc(O)c(O)c(O)c12` yielded an IC50 of 7710 nM.
With `O=c1[nH]c(-c2ccc(Br)cc2)nc2cc(O)c(O)c(O)c12` the figure was 9800 nM.
Regarding `CC(C)Cn1c(-c2ccccc2)nc2cc(O)c(O)c(O)c2c1=O`, the half-maximal inhibitory concentration (IC50) was determined as 124 nM.
With `O=c1[nH]c(-c2ccncc2)nc2cc(O)c(O)c(O)c12` the figure was 15200 nM; with `CC(c1ccccc1)c1nc2cc(O)c(O)c(O)c2c(=O)[nH]1` (stereo unspecified), 174 nM.
Next, `O=c1[nH]c(-c2cccc(F)c2)nc2cc(O)c(O)c(O)c12`: 5130 nM.
With `Cc1cccc(-c2nc3cc(O)c(O)c(O)c3c(=O)[nH]2)c1` the figure was 2280 nM.
Take `O=c1[nH]c(-c2ccc(F)cc2F)nc2cc(O)c(O)c(O)c12`: the IC50 was found to be 1540 nM.
Next, `Cc1ccccc1-c1nc2cc(O)c(O)c(O)c2c(=O)[nH]1`: 365 nM; `O=c1c2c(O)c(O)c(O)cc2nc(-c2ccccc2)n1-c1cccc(F)c1`: 236 nM.
